pIC50: −log10 of the molar value.
Biological target: Epidermal growth factor receptor (Homo sapiens, UniProt P00533, L858R/T790M)
Assay: biochemical
Assay type: cell-based, Sf9

Sequences of proteins named here, by UniProt entry; tags and fusion partners are left off. Residues count along the entry.
UniProt P00533, 25-1210 T790M/L858R limits assumed: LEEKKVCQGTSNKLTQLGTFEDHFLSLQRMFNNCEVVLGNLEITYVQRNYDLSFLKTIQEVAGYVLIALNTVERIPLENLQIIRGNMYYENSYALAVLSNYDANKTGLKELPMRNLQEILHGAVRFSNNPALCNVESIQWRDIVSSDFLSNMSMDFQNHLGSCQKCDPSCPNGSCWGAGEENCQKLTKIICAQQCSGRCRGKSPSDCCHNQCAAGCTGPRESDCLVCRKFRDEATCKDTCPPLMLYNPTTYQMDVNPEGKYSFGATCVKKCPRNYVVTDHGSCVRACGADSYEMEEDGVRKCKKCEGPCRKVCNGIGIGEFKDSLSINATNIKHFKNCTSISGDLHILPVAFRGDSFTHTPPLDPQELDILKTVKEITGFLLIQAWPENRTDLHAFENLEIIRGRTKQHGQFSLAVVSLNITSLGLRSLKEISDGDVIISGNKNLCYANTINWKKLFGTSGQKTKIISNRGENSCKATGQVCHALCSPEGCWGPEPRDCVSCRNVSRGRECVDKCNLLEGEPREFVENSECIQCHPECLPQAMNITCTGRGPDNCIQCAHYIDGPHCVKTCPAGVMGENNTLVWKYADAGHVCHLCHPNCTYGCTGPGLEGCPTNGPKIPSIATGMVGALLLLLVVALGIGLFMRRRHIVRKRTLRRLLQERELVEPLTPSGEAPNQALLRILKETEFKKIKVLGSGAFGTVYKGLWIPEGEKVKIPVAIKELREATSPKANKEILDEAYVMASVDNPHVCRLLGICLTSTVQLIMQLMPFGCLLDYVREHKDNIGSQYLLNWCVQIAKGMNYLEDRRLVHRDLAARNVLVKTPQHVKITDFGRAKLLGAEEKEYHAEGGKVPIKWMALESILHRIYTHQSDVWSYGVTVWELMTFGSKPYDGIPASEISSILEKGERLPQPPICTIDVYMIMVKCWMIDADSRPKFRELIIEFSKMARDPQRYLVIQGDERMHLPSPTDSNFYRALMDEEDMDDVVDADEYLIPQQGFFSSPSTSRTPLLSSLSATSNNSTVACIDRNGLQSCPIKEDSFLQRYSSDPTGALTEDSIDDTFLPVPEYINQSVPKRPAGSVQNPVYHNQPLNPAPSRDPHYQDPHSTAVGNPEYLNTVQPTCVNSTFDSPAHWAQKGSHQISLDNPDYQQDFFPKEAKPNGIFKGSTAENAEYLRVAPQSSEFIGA

C=CC(=O)Nc1cccc(Nc2nc(Nc3ccc(NC(=O)Cn4ccnc4)cc3)ncc2[N+](=O)[O-])c1
pIC50: 6.93

— ChEMBL document CHEMBL3860065, “Synthesis and biological evaluation of azole-diphenylpyrimidine derivatives (AzDPPYs) as potent T790M mutant form of epidermal growth factor receptor inhibitors” (Bioorg Med Chem, 2016)
